Each structure is given as a SMILES string.

In one test the target is T1, recombinant human HDAC6 (Homo sapiens, UniProt Q9UBN7).
T1 sequence (Q9UBN7 1-1215): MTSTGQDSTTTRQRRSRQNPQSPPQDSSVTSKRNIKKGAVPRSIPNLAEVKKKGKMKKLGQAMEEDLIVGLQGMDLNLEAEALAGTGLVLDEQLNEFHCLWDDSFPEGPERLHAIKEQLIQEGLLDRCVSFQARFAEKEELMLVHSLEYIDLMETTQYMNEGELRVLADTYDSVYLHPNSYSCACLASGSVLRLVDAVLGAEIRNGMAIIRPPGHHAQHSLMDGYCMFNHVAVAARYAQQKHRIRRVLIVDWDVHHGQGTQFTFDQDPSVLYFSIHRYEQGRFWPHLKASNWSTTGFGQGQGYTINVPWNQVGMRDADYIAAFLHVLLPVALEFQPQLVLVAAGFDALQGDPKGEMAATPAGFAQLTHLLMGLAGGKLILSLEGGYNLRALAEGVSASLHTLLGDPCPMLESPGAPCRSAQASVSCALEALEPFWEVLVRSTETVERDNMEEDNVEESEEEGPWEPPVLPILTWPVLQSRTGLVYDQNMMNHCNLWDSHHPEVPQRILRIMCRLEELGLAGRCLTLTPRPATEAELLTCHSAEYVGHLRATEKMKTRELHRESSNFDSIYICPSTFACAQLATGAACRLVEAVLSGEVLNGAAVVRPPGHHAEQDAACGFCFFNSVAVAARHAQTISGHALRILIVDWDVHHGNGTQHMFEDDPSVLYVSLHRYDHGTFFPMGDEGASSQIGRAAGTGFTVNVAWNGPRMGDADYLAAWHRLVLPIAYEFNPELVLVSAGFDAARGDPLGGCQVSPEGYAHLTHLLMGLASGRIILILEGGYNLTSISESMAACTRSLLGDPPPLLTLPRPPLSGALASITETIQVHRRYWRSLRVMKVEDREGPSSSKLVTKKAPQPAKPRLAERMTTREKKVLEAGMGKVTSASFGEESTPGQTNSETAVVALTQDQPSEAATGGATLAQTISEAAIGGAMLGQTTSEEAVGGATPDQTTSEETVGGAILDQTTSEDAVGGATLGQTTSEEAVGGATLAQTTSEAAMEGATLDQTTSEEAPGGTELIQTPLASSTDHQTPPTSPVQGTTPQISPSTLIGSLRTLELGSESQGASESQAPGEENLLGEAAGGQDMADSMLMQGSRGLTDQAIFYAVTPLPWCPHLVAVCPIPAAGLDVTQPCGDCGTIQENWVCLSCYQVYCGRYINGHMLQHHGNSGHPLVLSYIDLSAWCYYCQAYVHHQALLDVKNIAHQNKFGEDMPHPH
As to the kind of experiment: Recombinant HDAC isoform inhibition, HDAC6. The class given is biochemical.

For test [1], the system named is HDAC activity in HeLa cell nuclear extract. As to the kind of experiment: Inhibition of HDAC activity in HeLa cell nuclear extract. The class given is biochemical, human. The following applies: numbers only in Figures 2-4 (not readable).

In the case of `CC(C)C[C@H]1CC(=O)N[C@@H](C)C(=O)N[C@@H](CCCCCC(=O)O)C(=O)N[C@@H](Cc2c[nH]c3ccccc23)C(=O)N1` [3b], the IC50 on recombinant human HDAC6 is over 10 µM.

Turning to `CCC(=O)CCCCC[C@@H]1NC(=O)[C@H](C)NC(=O)C[C@H](CC(C)C)NC(=O)[C@H](Cc2c[nH]c3ccccc23)NC1=O` [compound 3], in test [1], the “HDAC inhibitory activity in HeLa cell nuclear extract, result in words” value is “low nanomolar IC50 values comparable to that of apicidin”.

The IC50 is the midpoint of a concentration-inhibition curve.

Source of the values: PMC2751792 (Journal of the American Chemical Society, 2009).
